Laboratory results as given in publication PMC6125627.

Molecular target: Flag-tagged EVI1-AQA (human) (UniProt Q03112)
Experiment: co-IP; Flag-tagged EVI1 precipitated with FlagM2 magnetic beads from total cell protein extracts of transfected HEK293T cells, untreated or treated with H2O2; co-immunoprecipitated CtBP1 detected by western blot and signal quantified (n = 3)

percent less co-immunoprecipitated CtBP1 than with EVI1-WT, after H2O2: 36.9%
Substance: C-terminal binding protein 1 (CtBP1) (from UniProt Q13363 1-440) (natural protein)
